We go through four molecules from patent US20120130699A1, “Method of molecular design and synthesis of therapeutic and preventive drugs” (priority 2010, published 2012).

In one experiment the test system is CaOv cells. The experiment in a line: antiproliferative activity of IFN derivatives (IAA) on CaOv cells. It is filed as cell-based, human. The conditions noted are these: 1000 U/ml, FIG. 2. The protocol: (§1) For the synthesis of quasi-life systems on the basis of α-2b-interferon, interferon (IFN) (Biolek, Kharkiv, Ukraine) and succinic and aconitic anhydrides (Aldrich-Sigma, USA) were used. The end of the reaction was controlled through changing the molecular weight of the IFN through pulse-gel-electrophoresis in polyacrylamide gel, using non-acylated IFN as a control^[ ]. […] The modified IFN were cleaned with chromatography on Sephadex G-25 and then preserved at −20° C. Their antiproliferative activity was studied on cells of the CaOv line, which is highly sensitive to interferons in vitro, and on SW-480, a cell line with a low sensitivity to the activity of IFN in vitro. […] The cell cultures' sensitivity to IFN was evaluated by the level of slowing of cell growth after treatment with the quasi-life IFN derivatives.
(§2) The Index of Antiproliferative Activity (IAA) of IFN (%) was calculated as a ratio between the number of cells in the experimental well and the number of cells in the control multiplied by 100. The non-specific cytotoxic effect was determined through dyeing the cells with trypan blue incubation after a 24-hour incubation of the cells with IFN derivatives. […] The number of cells was determined using an inverted microscope (Leica, Germany) every twelve hours.

The subject of another experiment is SW-480 cells. The experiment in a line: antiproliferative activity of IFN derivatives (IAA) on SW-480 cells. The experiment is classed as cell-based, human. The protocol: as §1, §2
For experiment [1] the following is noted: treatment of disseminated sclerosis, cited from earlier work.

In the case of “6-substituted SIFs: α-2b-interferon acylated with succinic anhydride, mole ratio 1:6”, the antiproliferative activity result with CaOv cells is “does not appear”.
Regarding “IFN: α-2b-interferon (Biolek, Kharkiv, Ukraine), non-acylated”, the antiproliferative activity entry in the experiment with SW-480 cells (SW-480, 1000 U/ml, FIG. 3) is “does not have antiproliferative activity”. Moreover, the “slow in growth, share of the cells” value in the experiment with SW-480 cells (after twelve hours of incubation) is reported as “literally ineffective”.
For the molecule “1-substituted SIF: α-2b-interferon acylated with succinic anhydride, mole ratio 1:1”, the “increase in the index of antiproliferation activity (IAA)” value in the experiment on CaOv cells (versus unmodified IFN) turned out to be 3.2 times.

B1: beta-interferon: beta-interferon, treatment of disseminated sclerosis (protein, UniProt P01574 22-187, looked up)
Interferon beta: MSYNLLGFLQRSSNFQCQKLLWQLNGRLEYCLKDRMNFDIPEEIKQLQQFQKEDAALTIYEMLQNIFAIFRQDSSSTGWNETIVENLLANVYHQINHLKTVLEEKLEKEDFTRGKLMSSLHLKRYYGRILHYLKAKEYSHCAWTIVRVEILRNFYFINRLTGYLRN
As to B1, the “exceeds the placebo in effectiveness” value in experiment [1] is recorded as 8%. Further, the effectiveness in experiment [1] (placebo 30%) was 38%.
